Antibody variant affinities, Ab-14 light chain, assay B

All variants were tested on one target, the spike HR2 peptide PDVDLGDISGINAS (SARS-CoV-2).

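The starting antibody came from a phage panning campaign against this peptide. The variants were designed computationally from a first round of random CDR variants and then made and measured. Their group label is 14L_Ctrl (Ctrl: baseline library sampled from a position-specific scoring matrix, with some repeated check sequences). The assay is AlphaSeq: two haploid yeast populations carry antibody and antigen on their surface. Mating (16 h, 30 °C) was followed by selection of diploids and sequencing of their barcodes. Scores were corrected for input abundance and mapped to Kd with protein pairs of known affinity run in the same pool. There are six technical replicates.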

Ab-14 is the parent antibody, in scFv form: VH, then the linker GGGGSGGGGSGGGGS, then VL. The heavy chain is unchanged in all variants.
VH: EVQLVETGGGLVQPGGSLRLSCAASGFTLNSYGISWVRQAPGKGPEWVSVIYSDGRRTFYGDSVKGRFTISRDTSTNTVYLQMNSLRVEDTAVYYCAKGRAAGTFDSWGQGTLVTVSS
VL: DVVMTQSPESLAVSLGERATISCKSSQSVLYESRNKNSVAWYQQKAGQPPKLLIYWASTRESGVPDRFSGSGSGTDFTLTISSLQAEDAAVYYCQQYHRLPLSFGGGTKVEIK

Each variant is given by its three light chain CDRs, as the data file delimits them; those of the parent are KSSQSVLYESRNKNSVA, WASTRES, QQYHRLPLS.
The read-out is the apparent dissociation constant on a log10 scale (nM): the lower, the stronger.
"nd" means that the variant was in the library but no mating with the target was seen in that replicate; the authors take this as a sign of poor binding, and no number exists.
The authors' rule: three or more of the six replicates give a measured affinity, fewer mean a poor binder.
The parent sequence was in this pool as ten entries: three were never detected, three once, and four in most replicates, with averages from 0.34 to 2.37.
A sequence measured in both rounds can read differently, since the two assays cover different ranges.
Empty control strains, which show no peptide, gave a signal in 4% of pairings with all light chain designs; the median was 2.64 and 95% of these signals were weaker than 1.59. No background was subtracted. For each scFv, signals with the empty controls are counted beside the result, with their mean in brackets.

CDR-L1	CDR-L2	CDR-L3	log10 Kd (nM) by replicate	signal with controls
KSSQSVLYESRNKNSVA	KASRRES	QCYHRLPLS	nd / nd / nd / nd / nd / nd	2 of 18 (1.50)
KSSQSVLYESLNFNSVA	WASTRES	QQYNRLPLS	1.69 / nd / nd / 2.50 / 1.61 / nd	1 of 18 (2.27)
KSSQSVLTESRTKNSVA	WASTRES	QQYHRLPWS	nd / nd / nd / nd / nd / nd	1 of 18 (2.51)
KSSQSVLYESKNKNSVA	WASTRES	QQYHHLPLE	nd / 2.71 / 2.42 / 2.98 / 4.69 / nd	1 of 18 (2.56)
KSPQSMLYESRNKNSVA	HASTRES	QQYHRLPLS	0.29 / 0.66 / 0.05 / 0.13 / 0.63 / 0.80	0 of 18
KSSPSVLYESRNKNSVA	WASTRES	QCYHRLPLS	1.40 / nd / nd / nd / nd / nd	0 of 18
KSSQSVVYASRNKNSVA	WASTLQS	QQYHRLPLS	nd / nd / nd / nd / nd / nd	0 of 18
KSSQSVLYESRNDNSLA	HESTREL	QQYHRLPLS	nd / 2.11 / nd / 1.78 / 2.77 / nd	0 of 18
KLSQSVLYESRNKNSVA	WASTRES	QQYHRLLLS	nd / nd / 1.03 / nd / 0.62 / 2.42	0 of 18
NSSPSVLYESRNKNSVA	WASTRES	QQYHRLPLI	nd / nd / nd / 2.29 / nd / 1.16	0 of 18
KSSQTVLYESRNKNSVA	WASTRES	QQYHRLPLS	3.09 / 0.91 / 0.97 / 1.02 / 0.44 / 1.15	0 of 18
KSSQSVLYESREKNSVA	WASTRES	QQYHRLPLS	nd / nd / 4.18 / nd / nd / nd	0 of 18
KSSQSVIYESRNKNSVA	QASTRES	QQYHRLPLS	0.39 / 0.81 / 0.74 / 0.14 / 0.37 / 0.62	0 of 18
KSSQSVLYESDNKNSVA	EASTRED	QQYHRLVLS	1.01 / 1.54 / 0.03 / -0.13 / 0.38 / 1.94	0 of 18
KSSQSVLYESRNKNNVA	YASTRES	QQYHRLPLS	0.93 / 0.59 / 0.73 / 0.65 / 0.79 / 0.58	1 of 18 (1.08)
KSSQSVLYESRNKNEVA	DADTRES	QQYHRLPLS	1.44 / 1.16 / 1.17 / 1.13 / 0.67 / 1.05	0 of 18
KRSQSVLYESRNKNSVA	WASTLES	QQYHRLPLS	2.11 / nd / 2.21 / nd / nd / nd	1 of 18 (2.19)
KSSQSPLYESRNKNSVA	QASYRES	QQYMRLPLS	0.58 / 0.09 / 0.35 / 0.15 / 0.21 / 0.56	0 of 18
KSSQSVPYESRNKNAVA	WASTRES	QQYHRLPLS	1.19 / 0.96 / 1.17 / 1.07 / 1.17 / 0.97	0 of 18
KSSQSVLYESANKNSLA	WASTRES	QQYWRLPLS	1.31 / 1.79 / 2.05 / 1.02 / 1.54 / 0.94	2 of 18 (2.33)
KWSQSVRYEDFNKNSVA	WVSTRES	QQYHRLPLS	nd / 2.69 / 4.85 / 3.91 / 3.20 / 2.47	0 of 18
KTSQSVEYESRNKNSVA	WASTRES	PQYHRLPLS	nd / nd / nd / nd / nd / nd	0 of 18
KLSQSVLYEQRNKYQVA	WASTRWS	QQYHRLPLS	nd / nd / 2.15 / nd / nd / nd	0 of 18
KASQSVLYESRNKNSVA	YASTRES	QQYHRLPLS	1.23 / 1.29 / 0.64 / 1.54 / 0.87 / 1.19	0 of 18
KFSQPVLYESRNLNSVA	HASTRES	QQYHRLPLS	1.25 / nd / 1.77 / 1.89 / 2.32 / nd	0 of 18
KKSQSVLYESRNKNSVA	QASTRES	QQYHHLPLS	2.05 / 1.14 / 1.71 / 1.43 / 1.49 / 1.25	1 of 18 (1.94)
KISQSVLYESRNKNSVA	AASSRES	QMYHRLPLS	0.13 / 0.22 / -0.01 / -0.11 / 0.05 / 0.08	0 of 18
KLSQSVLYESRNKNSVA	QASTRES	QQHHRLPLS	1.84 / 1.56 / 2.18 / 2.12 / 1.95 / 2.41	2 of 18 (2.52)
KSSQSVMYENRNKNSVA	WASTRES	QQYHDLPLS	2.18 / nd / nd / 2.66 / 2.40 / nd	1 of 18 (2.80)
KMSQSVEYEHLNNNSVA	WESTRES	QQYHRLPLS	3.09 / 1.87 / 4.71 / 3.99 / 3.70 / nd	0 of 18

Excerpt, the first 2 entries:

CDR-L1	CDR-L2	CDR-L3	log10 Kd (nM) by replicate	signal with controls
KSSQSVLYESRNKNSVA	KASRRES	QCYHRLPLS	nd / nd / nd / nd / nd / nd	2 of 18 (1.50)
KSSQSVLYESLNFNSVA	WASTRES	QQYNRLPLS	1.69 / nd / nd / 2.50 / 1.61 / nd	1 of 18 (2.27)

Values reported by Li et al. 2023, doi:10.1038/s41467-023-39022-2 (FLAb copy).